Experimental data reported in US20110124653A1, “ARYL-SULPHONAMIDIC DIMERS AS METALLOPROTEASES INHIBITORS” (BRACCO IMAGING S.P.A., priority 2008, published 2011).

The chains behind the UniProt entries cited, without tags or fusion partners. Residues count along the entry.
UniProt P08253, 110-660 limits assumed: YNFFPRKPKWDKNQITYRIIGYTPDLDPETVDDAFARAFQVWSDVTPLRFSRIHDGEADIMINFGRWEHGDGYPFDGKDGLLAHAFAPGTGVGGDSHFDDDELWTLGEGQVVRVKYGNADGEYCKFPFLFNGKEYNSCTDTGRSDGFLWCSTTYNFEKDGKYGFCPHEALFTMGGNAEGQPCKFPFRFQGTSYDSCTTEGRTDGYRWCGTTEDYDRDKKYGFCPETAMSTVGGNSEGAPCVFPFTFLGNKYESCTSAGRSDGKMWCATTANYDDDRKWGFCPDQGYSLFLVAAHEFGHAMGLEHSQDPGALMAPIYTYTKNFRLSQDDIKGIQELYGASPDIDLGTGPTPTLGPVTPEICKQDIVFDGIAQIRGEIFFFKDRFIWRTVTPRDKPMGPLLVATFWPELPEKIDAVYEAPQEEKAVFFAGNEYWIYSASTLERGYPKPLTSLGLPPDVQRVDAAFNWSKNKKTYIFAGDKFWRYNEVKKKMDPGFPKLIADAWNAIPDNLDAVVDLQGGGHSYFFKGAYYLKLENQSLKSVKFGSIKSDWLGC

Assays:
[1] = molecular target: MMP-14 (Homo sapiens, UniProt P50281); details: read-out: IC50 MMP-14; isolated enzymes, substrate FS-1 (Mca-Pro-Leu-Gly-Leu-Dpa-Ala-Arg-NH2), prior art (Rossello et al.); cited from earlier work
[2] = molecular target: MMP-2 (Homo sapiens, UniProt P08253); assay: MMP inhibition assay, fluorogenic substrate FS-6; details: read-out: IC50 MMP-2; substrate FS-6 (Mca-Lys-Pro-Leu-Gly-Leu-Dpa-Ala-Arg-NH2), enzyme and inhibitor incubated 4 h at 25° C., triplicate
Experimental: (§1) As reported therein, the inhibitory activity of the compounds of the invention was evaluated on the known fluorogenic substrate (Mca-Lys-Pro-Leu-Gly-Leu-Dpa-Ala-Arg-NH2), shortly referred to as FS-6 (see, as a reference, U. Neumann, Analytical Biochem. 2004, 328, 166-173).
(§2) Recombinant human pro-MMP-2 was supplied by Prof. Gillian Murphy (Department of Oncology, University of Cambridge, UK), while pro-MMP-13 and pro-MMP-14 were purchased from Calbiochem. Proenzymes were activated immediately prior to use with p-aminophenylmercuric acetate (APMA: 2 mM for 1 h at 37° C. for pro-MMP-2 and 1 mM for 30 min at 37° C. for pro-MMP-13). […] After the addition of 200 μM solution of the fluorogenic substrate Mca-Lys-Pro-Leu-Gly-Leu-Dpa-Ala-Arg-NH2 (Bachem) (see, for a reference, Neumann, U.; Kubota, H.; Frei, K.; Ganu, V.; Leppert, D. Anal. Biochem. 2004, 328, 166) for all of the enzymes in DMSO (final concentration 2 μM), the hydrolysis was monitored every 15 sec. for 20 min recording the increase in fluorescence (λex=325 nm, λem=395 nm) using a Molecular Device SpectraMax Gemini XS plate reader.
(§3) The assays were performed in triplicate, in a total volume of 200 μl per well, in 96-well microtitre plates (Corning, black, NBS). […] Percent of inhibition was calculated from control reactions without the inhibitor. […] Results were analyzed using SoftMax Pro software and GraFit software.

[3] = molecular target: MMP-13 (Homo sapiens, UniProt P45452); assay: MMP inhibition assay, fluorogenic substrate FS-6; details: read-out: IC50 MMP-13; substrate FS-6 (Mca-Lys-Pro-Leu-Gly-Leu-Dpa-Ala-Arg-NH2), enzyme and inhibitor incubated 4 h at 25° C., triplicate
Experimental: as §1, §2, §3

IC50 [2]: 19.8 nM | IC50 [3]: 14.7 nM
SMILES: CC(C)ON([C@H](CCNC(=O)CCCNC(=O)c1cccc(C(=O)NCCCC(=O)NCC[C@H](C(=O)NO)N(OC(C)C)S(=O)(=O)c2ccc(-c3ccccc3)cc2)c1)C(=O)NO)S(=O)(=O)c1ccc(-c2ccccc2)cc1
IC50 [1]: 34 nM
